In paper PMC3288537 (ACS Chemical Biology, 2011):
Changes are numbered by the printed parent chain.

The chains behind the UniProt entries cited, without tags or fusion partners. Where a name states a change or a piece, a line headed by the entry shows the natural chain unless it says otherwise. Residues count along the entry.
UniProt P51452, whole entry, species assumed: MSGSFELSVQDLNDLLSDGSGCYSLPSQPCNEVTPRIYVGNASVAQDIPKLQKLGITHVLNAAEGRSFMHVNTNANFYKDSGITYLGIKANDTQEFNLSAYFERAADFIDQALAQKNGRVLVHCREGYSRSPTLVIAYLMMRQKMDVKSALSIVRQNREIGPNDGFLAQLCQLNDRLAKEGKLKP
UniProt Q9Y2R2, whole entry: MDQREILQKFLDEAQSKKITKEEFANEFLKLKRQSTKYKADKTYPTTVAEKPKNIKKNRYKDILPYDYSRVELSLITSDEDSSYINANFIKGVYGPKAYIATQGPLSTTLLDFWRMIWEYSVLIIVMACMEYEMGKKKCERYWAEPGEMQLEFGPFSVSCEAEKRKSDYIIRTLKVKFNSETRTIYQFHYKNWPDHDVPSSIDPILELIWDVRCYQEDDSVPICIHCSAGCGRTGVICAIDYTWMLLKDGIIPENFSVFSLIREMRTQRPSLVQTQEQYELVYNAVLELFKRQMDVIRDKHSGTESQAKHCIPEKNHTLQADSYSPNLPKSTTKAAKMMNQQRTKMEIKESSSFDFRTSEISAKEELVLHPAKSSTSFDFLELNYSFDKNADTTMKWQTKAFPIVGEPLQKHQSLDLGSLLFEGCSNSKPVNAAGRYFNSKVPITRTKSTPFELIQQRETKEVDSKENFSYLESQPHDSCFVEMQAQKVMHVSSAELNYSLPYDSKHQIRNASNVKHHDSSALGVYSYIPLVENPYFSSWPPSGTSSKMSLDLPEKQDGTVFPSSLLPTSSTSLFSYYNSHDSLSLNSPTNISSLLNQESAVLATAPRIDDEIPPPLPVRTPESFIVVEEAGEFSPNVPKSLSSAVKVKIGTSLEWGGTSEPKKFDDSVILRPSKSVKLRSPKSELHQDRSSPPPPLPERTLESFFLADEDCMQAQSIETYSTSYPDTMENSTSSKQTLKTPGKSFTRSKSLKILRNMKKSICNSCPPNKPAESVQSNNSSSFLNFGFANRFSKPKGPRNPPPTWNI
UniProt P29350: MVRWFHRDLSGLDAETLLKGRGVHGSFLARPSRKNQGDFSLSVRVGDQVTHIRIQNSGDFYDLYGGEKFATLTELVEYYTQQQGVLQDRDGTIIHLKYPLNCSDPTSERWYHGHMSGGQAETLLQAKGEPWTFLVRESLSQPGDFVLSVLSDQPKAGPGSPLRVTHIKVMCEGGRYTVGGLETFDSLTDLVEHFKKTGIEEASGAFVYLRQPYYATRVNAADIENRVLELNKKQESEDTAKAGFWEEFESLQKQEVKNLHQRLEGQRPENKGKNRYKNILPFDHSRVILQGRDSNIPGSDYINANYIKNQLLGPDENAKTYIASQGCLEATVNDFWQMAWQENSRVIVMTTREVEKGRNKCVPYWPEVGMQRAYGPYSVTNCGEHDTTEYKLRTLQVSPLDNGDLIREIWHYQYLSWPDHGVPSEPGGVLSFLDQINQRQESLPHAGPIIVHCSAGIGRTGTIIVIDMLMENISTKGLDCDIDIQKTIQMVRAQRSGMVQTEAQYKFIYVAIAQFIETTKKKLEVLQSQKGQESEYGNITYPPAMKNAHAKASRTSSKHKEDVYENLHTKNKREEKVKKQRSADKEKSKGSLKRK
UniProt P10586, 30-1907, species assumed: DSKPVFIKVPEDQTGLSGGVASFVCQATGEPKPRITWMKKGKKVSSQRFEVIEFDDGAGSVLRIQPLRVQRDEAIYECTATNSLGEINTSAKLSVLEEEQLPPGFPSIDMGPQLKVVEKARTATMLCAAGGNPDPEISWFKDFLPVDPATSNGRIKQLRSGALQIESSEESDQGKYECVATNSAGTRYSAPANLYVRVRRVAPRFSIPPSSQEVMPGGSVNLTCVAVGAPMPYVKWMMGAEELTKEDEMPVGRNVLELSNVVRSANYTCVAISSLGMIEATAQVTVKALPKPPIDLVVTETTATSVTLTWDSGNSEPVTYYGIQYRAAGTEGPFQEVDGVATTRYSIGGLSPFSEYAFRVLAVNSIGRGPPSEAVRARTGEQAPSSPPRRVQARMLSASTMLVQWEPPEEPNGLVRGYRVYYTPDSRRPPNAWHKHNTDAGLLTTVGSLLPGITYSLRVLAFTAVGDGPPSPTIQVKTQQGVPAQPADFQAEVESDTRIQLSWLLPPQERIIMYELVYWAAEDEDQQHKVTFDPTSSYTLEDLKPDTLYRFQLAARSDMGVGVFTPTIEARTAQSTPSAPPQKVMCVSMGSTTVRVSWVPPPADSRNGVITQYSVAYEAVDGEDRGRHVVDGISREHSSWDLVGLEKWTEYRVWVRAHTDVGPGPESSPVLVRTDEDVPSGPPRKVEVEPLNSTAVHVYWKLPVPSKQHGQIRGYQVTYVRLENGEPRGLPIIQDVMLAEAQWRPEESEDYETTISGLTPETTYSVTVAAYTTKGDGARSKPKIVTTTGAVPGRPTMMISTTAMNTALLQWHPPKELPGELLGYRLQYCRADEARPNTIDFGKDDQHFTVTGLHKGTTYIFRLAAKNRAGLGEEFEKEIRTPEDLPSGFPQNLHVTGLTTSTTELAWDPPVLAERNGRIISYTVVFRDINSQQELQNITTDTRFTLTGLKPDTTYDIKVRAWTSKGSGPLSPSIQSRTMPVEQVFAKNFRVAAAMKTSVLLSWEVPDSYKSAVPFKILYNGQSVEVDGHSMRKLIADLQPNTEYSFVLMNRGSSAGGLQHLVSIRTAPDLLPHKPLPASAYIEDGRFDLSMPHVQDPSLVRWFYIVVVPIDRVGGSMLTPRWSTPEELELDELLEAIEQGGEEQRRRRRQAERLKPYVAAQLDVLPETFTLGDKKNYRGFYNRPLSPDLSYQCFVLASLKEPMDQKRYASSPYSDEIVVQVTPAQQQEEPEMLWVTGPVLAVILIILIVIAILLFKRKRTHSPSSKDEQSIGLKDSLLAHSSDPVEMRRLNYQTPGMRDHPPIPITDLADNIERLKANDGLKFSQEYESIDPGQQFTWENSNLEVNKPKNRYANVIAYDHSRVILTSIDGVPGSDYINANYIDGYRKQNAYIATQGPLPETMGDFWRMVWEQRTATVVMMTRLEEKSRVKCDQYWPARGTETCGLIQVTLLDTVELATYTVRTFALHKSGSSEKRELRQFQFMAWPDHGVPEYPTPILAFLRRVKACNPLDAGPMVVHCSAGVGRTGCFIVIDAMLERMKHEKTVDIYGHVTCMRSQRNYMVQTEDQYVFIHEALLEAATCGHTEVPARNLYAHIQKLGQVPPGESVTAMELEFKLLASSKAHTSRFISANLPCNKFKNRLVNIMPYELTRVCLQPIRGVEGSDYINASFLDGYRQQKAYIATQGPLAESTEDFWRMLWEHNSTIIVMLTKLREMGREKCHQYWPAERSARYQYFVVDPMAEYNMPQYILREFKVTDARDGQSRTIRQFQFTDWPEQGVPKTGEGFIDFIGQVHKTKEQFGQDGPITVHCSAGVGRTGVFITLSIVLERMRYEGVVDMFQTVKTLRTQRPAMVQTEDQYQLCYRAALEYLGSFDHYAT

Experiments:
HePTP = biological target: T1, HePTP (Homo sapiens, UniProt P35236); test: Dose-response OMFP phosphatase assay, HePTP; format: biochemical
T1 sequence (P35236 1-360): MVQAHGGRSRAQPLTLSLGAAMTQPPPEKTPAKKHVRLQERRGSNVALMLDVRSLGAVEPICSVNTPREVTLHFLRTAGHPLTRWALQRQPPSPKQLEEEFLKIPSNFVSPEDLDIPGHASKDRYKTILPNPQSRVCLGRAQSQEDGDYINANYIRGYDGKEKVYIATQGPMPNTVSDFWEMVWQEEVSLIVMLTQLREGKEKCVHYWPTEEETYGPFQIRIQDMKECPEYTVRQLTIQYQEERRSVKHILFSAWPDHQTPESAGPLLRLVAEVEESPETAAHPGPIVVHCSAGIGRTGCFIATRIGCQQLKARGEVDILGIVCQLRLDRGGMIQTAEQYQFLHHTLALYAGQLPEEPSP
How it was run: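 Compound given as a ten-point 2-fold series from DMSO dilutions. Kinetic fluorescence at ex 485/em 528 nm over 10 min; slopes fitted by sigmoidal variable-slope regression for IC50.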

VHR = VHR (Homo sapiens, UniProt P51452); test: Dose-response OMFP phosphatase assay, VHR; format: biochemical; details: ratio of IC50 values
STEP = biological target: T2, STEP (Homo sapiens, UniProt P54829); test: Dose-response OMFP phosphatase assay, STEP; format: biochemical; details: ratio of IC50 values
T2 sequence (P54829 1-565): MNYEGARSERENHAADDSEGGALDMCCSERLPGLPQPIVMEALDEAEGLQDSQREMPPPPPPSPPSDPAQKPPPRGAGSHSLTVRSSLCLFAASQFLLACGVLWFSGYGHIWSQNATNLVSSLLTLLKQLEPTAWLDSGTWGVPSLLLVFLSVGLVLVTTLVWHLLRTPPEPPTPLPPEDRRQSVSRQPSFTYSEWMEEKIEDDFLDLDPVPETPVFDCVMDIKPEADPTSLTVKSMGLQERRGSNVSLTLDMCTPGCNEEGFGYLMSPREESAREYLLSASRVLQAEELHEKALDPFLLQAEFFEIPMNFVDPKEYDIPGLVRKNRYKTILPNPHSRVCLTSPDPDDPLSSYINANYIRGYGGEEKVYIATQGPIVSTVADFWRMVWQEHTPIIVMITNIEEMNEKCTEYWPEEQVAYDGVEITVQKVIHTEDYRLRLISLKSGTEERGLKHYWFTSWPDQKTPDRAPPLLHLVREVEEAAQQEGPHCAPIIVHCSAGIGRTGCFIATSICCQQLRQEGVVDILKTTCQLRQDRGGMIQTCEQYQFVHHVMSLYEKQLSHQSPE

PTP1B = biological target: T3, PTP1B (Homo sapiens, UniProt P18031); test: Dose-response OMFP phosphatase assay, PTP1B; format: biochemical; details: ratio of IC50 values
T3 sequence (P18031 1-435): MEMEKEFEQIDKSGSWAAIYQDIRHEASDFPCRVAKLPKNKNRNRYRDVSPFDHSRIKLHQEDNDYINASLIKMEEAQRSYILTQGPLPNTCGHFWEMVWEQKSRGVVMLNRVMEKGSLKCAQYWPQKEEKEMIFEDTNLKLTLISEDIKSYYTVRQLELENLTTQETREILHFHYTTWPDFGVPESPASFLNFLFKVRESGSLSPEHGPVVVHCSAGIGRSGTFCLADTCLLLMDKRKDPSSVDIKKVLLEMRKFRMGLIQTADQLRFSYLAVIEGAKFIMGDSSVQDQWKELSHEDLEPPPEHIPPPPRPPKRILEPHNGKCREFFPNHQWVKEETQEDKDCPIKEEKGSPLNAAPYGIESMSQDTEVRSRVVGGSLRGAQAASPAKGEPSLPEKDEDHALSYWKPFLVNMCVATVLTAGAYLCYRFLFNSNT

LYP = LYP (Homo sapiens, UniProt Q9Y2R2); test: Dose-response OMFP phosphatase assay, LYP; format: biochemical; details: ratio of IC50 values
SHP1 = SHP1 (Homo sapiens, UniProt P29350); test: Dose-response OMFP phosphatase assay, SHP1; format: biochemical; details: ratio of IC50 values
How it was run: (§1)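 Ten-point 2-fold dilution series of test compound prepared in DMSO. Fluorescence (ex 485/em 528 nm) read in kinetic mode over 10 min; progress-curve slopes taken as activity. IC50 by nonlinear regression (sigmoidal, variable slope).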

SHP2 = SHP2 (Homo sapiens, UniProt Q06124); test: Dose-response OMFP phosphatase assay, SHP2; format: biochemical; details: ratio of IC50 values
How it was run: as §1

LAR = LAR (Homo sapiens, UniProt P10586); test: Dose-response OMFP phosphatase assay, LAR; format: biochemical; details: ratio of IC50 values
How it was run: as §1

[1] = biological target: T4, HePTP-DM (K105A/T106A double mutant) (Homo sapiens, UniProt P35236, K126A/T127A); test: Dose-response OMFP phosphatase assay, HePTP K105A/T106A double mutant; format: biochemical
T4 sequence (P35236 22-360 K126A/T127A limits assumed): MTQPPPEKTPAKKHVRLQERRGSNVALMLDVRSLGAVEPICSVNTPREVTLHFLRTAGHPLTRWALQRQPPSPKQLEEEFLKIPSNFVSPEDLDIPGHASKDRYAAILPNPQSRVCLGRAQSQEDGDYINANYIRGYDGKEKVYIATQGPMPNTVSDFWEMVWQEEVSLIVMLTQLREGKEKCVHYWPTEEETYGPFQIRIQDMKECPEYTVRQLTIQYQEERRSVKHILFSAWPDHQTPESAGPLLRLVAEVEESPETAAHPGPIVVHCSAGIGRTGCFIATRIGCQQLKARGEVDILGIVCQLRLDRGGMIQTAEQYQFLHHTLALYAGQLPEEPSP

HePTP H237A mutant = biological target: T5, HePTP H237A mutant (Homo sapiens, UniProt P35236, H258A); test: Dose-response OMFP phosphatase assay, HePTP H237A mutant; format: biochemical
T5 sequence (P35236 22-360 H258A limits assumed): T4 sequence (P35236 22-360 K126A/T127A limits assumed) with A105K, A106T, H237A

[2] = Metabolic stability in rat liver microsomes with NADPH; format: in vitro ADME; details: for microsomal stability (compound remaining): NADPH

For `O=C(O)c1ccccc1-c1ccc(/C=c2\sc3nc4cc(Br)cnc4n3c2=O)o1` [Compound 1], the “selectivity for HePTP over the most similar enzymes in the in vitro assay” value (HePTP) was 5–30 fold, the “selectivity for HePTP over VHR” value (VHR) was 9 fold and the “selectivity for HePTP over STEP” value (STEP) was 30 fold. For the same compound, the “selectivity for HePTP over PTP1B” value (PTP1B) was 8 fold, the “selectivity for HePTP over LYP” value (LYP) was 9 fold and the “selectivity for HePTP over SHP1” value (SHP1) was 12 fold. The “selectivity for HePTP over SHP2” value (SHP2) was 5 fold, the “selectivity for HePTP over LAR” value (LAR) was 348 fold and the “fold less active against HePTP-DM compared to wt HePTP” value [1] was 31 fold. For the same compound, the “fold less active against H237A mutant compared to wt HePTP” value (HePTP H237A mutant) was “more than 13 fold”, the “metabolites in microsomal stability assay” value ([2]; LC/MS) was “no major metabolite” and the “microsomal stability (compound remaining)” value ([2]; rat liver microsomes, after 15 min) was 86.2 ± 2.7%. For the same compound, the “microsomal stability (compound remaining)” value ([2]; rat liver microsomes, after 30 min) was 71.0 ± 2.9%, the “microsomal stability (compound remaining)” value ([2]; rat liver microsomes, after 45 min) was 53.0 ± 1.4% and the “microsomal half-life t1/2” value ([2]; rat liver microsomes, first order kinetics assumed) was 50 min.
